What was measured:
[1] = biological target: T1, MMP-2 (72 kDa gelatinase, gelatinase A) (Homo sapiens, UniProt P08253); experiment: In vitro metalloprotease inhibition, MMP-2; type: biochemical
T1 sequence (P08253 110-660): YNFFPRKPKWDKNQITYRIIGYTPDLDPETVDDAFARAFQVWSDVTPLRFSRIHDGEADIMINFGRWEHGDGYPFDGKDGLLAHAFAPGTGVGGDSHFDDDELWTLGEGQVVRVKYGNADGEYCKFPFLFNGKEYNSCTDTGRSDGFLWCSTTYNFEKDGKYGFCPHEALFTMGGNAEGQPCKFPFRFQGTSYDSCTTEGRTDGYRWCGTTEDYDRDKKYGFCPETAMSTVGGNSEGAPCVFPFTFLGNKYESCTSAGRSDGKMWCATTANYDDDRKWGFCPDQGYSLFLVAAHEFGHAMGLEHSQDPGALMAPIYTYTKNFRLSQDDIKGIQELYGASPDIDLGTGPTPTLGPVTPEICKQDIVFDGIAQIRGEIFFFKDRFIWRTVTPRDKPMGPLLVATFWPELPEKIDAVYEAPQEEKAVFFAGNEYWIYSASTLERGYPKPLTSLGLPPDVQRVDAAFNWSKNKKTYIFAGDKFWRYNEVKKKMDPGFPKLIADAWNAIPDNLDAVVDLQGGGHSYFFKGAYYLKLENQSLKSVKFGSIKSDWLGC
Excerpt: (§1) Blank cells indicate lack of data only.

ADAM-10 = biological target: T2, ADAM-10 (UniProt O14672); experiment: ADAM-10 enzyme assay, cleavage of a fluorogenic 10-residue peptide; type: biochemical, mouse or human (mADAM-10 or hADAM-10); details: in vitro;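 further: mouse or human ADAM-10 at 5 nM active enzyme, pH 8.0 HEPES buffer with CaCl2 and NP-40, compounds titrated 100 µM down to 0.5 nM, fluorescence read after 16 h at room temperature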
T2 sequence (O14672 1-748): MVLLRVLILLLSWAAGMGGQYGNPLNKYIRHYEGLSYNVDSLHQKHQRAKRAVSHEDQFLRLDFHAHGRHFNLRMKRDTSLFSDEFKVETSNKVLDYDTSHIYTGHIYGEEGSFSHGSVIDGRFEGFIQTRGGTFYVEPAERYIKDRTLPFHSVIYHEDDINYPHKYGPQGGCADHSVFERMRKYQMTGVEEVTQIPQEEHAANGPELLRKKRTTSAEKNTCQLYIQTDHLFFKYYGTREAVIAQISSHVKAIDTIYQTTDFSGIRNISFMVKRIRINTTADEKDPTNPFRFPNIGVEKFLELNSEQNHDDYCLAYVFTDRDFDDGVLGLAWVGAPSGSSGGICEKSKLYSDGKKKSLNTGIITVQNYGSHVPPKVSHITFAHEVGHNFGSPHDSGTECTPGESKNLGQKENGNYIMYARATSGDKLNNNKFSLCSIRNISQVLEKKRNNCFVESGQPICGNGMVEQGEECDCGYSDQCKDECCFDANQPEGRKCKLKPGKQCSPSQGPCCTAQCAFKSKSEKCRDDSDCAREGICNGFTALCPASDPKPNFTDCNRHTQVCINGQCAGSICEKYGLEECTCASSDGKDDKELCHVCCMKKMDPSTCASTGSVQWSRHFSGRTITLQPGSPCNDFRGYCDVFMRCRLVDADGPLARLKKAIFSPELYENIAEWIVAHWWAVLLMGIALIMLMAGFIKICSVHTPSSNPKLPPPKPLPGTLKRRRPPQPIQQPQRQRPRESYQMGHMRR

MMP-13 (collagenase-3) = MMP-13 (collagenase-3) (Homo sapiens, UniProt P45452); experiment: In vitro metalloprotease inhibition, MMP-13; type: biochemical
Excerpt: as §1

[2] = biological target: MMP-8 (Neutrophil collagenase) (Homo sapiens, UniProt P22894); experiment: In vitro metalloprotease inhibition, MMP-8; type: biochemical
Excerpt: as §1

[3] = biological target: MMP-9 (92 kDa gelatinase, gelatinase B) (Homo sapiens, UniProt P14780); experiment: In vitro metalloprotease inhibition, MMP-9; type: biochemical
Excerpt: as §1

Measured: IC50

COCCOC(=O)N1CCN(S(=O)(=O)c2cc(F)c(Oc3ccc(Cl)cc3)c(F)c2)[C@@H](C(=O)NO)C1 [Entry 15]
< 50 nM: all assays above

From patent US7629341B2, “Human ADAM-10 inhibitors” (Symphony Evolution, Inc., priority 2003, dated 2009)
